The values that follow come from patent US20130102618A1, “3-AMINO-5,6-DIHYDRO-1H-PYRAZIN-2-ONE DERIVATIVES USEFUL FOR THE TREATMENT OF ALZHEIMER'S DISEASE AND OTHER FORMS OF DEMENTIA” (JANSSEN PHARMACEUTICA NV, priority 2010, published 2013).

Amino acid sequences for entries named in this document (tags omitted). Residues count along the entry.
UniProt P56817, 46-501 limits assumed: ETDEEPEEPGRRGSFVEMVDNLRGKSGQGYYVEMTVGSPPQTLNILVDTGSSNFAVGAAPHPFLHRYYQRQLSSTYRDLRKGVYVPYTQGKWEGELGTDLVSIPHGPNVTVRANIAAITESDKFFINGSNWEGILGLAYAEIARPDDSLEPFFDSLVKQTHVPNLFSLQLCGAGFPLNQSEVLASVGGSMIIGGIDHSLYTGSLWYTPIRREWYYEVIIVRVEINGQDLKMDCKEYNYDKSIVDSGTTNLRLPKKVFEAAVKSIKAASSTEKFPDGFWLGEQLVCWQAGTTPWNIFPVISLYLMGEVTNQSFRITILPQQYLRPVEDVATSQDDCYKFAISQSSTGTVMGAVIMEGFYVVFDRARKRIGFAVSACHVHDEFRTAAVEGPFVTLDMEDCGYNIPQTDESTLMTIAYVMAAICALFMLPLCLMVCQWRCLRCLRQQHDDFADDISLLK

Experiment [1] concerns the target recombinant BACE1 protein (Homo sapiens, UniProt P56817). The experiment in a line: Biochemical FRET based assay. The conditions noted are these: recombinant BACE1 1 μg/ml, APP-derived Swedish-mutation peptide substrate, 120 minutes, room temperature, pH 5.0.
For experiment [2], the system named is Aβ42 produced and secreted into the medium of human neuroblastoma SKNBE2 cells. The experiment in a line: Cellular αlisa assay in SKNBE2 cells, Aβ42. It counts as cell-based. The following applies: SKNBE2 expressing wild type hAPP695, incubated for 18 hours.
Experiment [3] has as its system Aβtotal produced and secreted into the medium of human neuroblastoma SKNBE2 cells. The experiment can be described thus: Cellular αlisa assay in SKNBE2 cells, Aβtotal. The following applies: SKNBE2 expressing wild type hAPP695, incubated for 18 hours.

Regarding `CN1C[C@](C)(c2cccc(NC(=O)c3ccc(Cl)cn3)c2)N=C(N)C1=O`, the “Biochemical FRET based assay pIC50” value in experiment [1] is under 4.52. The “Cellular αlisa assay in SKNBE2 cells Aβ42 pIC50” value in experiment [2] is recorded as under 5. In addition, the “Cellular αlisa assay in SKNBE2 cells Aβtotal pIC50” value in experiment [3] was under 5.

On to `CN1C[C@@](C)(c2cc(-c3cncnc3)c(F)cc2F)N=C(N)C1=O`, for which the “Biochemical FRET based assay pIC50” value in experiment [1] stood at 5.04. In experiment [2], the “Cellular αlisa assay in SKNBE2 cells Aβ42 pIC50” value was determined as 5.47. Moreover, the “Cellular αlisa assay in SKNBE2 cells Aβtotal pIC50” value in experiment [3] is 5.52.

Consider `CN1C[C@](C)(c2cc(-c3cncnc3)c(F)cc2F)N=C(N)C1=O`, for which the “Biochemical FRET based assay pIC50” value in experiment [1] is given as under 4.52. Further, the “Cellular αlisa assay in SKNBE2 cells Aβ42 pIC50” value in experiment [2] is under 5. Further, the “Cellular αlisa assay in SKNBE2 cells Aβtotal pIC50” value in experiment [3] is under 5.

Regarding `CN1C[C@@](C)(c2cc(NC(=O)c3ccc(Cl)cn3)ccc2F)N=C(N)C1=O`, the “Cellular αlisa assay in SKNBE2 cells Aβtotal pIC50” value in experiment [3] is 7.60.

Regarding `CN1C[C@](C)(c2cc(NC(=O)c3ccc(Cl)cn3)ccc2F)N=C(N)C1=O`, the “Cellular αlisa assay in SKNBE2 cells Aβtotal pIC50” value in experiment [3] is under 5.

For the molecule `CN1CC(C)(c2cccc(-c3ccccc3)c2)N=C(N)C1=O` (centres unmarked), the “Biochemical FRET based assay pIC50” value in experiment [1] (tested form: hydrochloride) is on record as under 4.52. Further, in experiment [2] (tested form: hydrochloride), the “Cellular αlisa assay in SKNBE2 cells Aβ42 pIC50” value was under 5. In addition, in experiment [3] (tested form: hydrochloride), the “Cellular αlisa assay in SKNBE2 cells Aβtotal pIC50” value is under 5.

As to `COc1cncc(-c2cc([C@]3(C)CN(C)C(=O)C(N)=N3)c(F)cc2F)c1`, in experiment [1], the “Biochemical FRET based assay pIC50” value was 5.42. Moreover, the “Cellular αlisa assay in SKNBE2 cells Aβ42 pIC50” value in experiment [2] is recorded as 5.76. Moreover, the “Cellular αlisa assay in SKNBE2 cells Aβtotal pIC50” value in experiment [3] worked out at 5.70.

Take `COc1cncc(-c2cc([C@@]3(C)CN(C)C(=O)C(N)=N3)c(F)cc2F)c1`: the “Biochemical FRET based assay pIC50” value in experiment [1] is recorded as under 4.52. Besides, the “Cellular αlisa assay in SKNBE2 cells Aβ42 pIC50” value in experiment [2] is recorded as under 5. For the same molecule, the “Cellular αlisa assay in SKNBE2 cells Aβtotal pIC50” value in experiment [3] is under 5.

Take `CN1C[C@@](C)(c2cccc(NC(=O)c3ccc(Cl)cn3)c2)N=C(N)C1=O`: the “Biochemical FRET based assay pIC50” value in experiment [1] stood at 6.53. The “Cellular αlisa assay in SKNBE2 cells Aβ42 pIC50” value in experiment [2] came out at 7.08. For the same molecule, the “Cellular αlisa assay in SKNBE2 cells Aβtotal pIC50” value in experiment [3] is listed as 7.07.
